Experimental data published in patent EP2261258A1, “MCSP-aligned scFv antibody fragments and use of same” (Schuler, Gerold, priority 2009, dated 2010).

Columns and labels:
[1] = target: Melanom-assoziiertes Chondroitinsulfat Proteoglykan (MCSP) (human) (UniProt Q6UVK1); assay: flow cytometry with MCSP-GFP on primary melanoma cells of patient 3
[2] = target: Melanom-assoziiertes Chondroitinsulfat Proteoglykan (MCSP) (human) (UniProt Q6UVK1); assay: flow cytometry with MCSP-GFP on primary melanoma cells of patient 4
[3] = target: Melanom-assoziiertes Chondroitinsulfat Proteoglykan (MCSP) (human) (UniProt Q6UVK1); assay: flow cytometry with MCSP-GFP on primary melanoma cells of patient 2
[4] = target: Melanom-assoziiertes Chondroitinsulfat Proteoglykan (MCSP) (human) (UniProt Q6UVK1); assay: flow cytometry with MCSP-GFP on primary melanoma cells of patient 1
[5] = target: Melanom-assoziiertes Chondroitinsulfat Proteoglykan (MCSP) (human) (UniProt Q6UVK1); assay: flow cytometry with MCSP-GFP on primary melanoma cells of patient 7
[6] = target: Melanom-assoziiertes Chondroitinsulfat Proteoglykan (MCSP) (human) (UniProt Q6UVK1); assay: flow cytometry with MCSP-GFP on primary melanoma cells of patient 6
[7] = target: Melanom-assoziiertes Chondroitinsulfat Proteoglykan (MCSP) (human) (UniProt Q6UVK1); assay: flow cytometry with MCSP-GFP on primary melanoma cells of patient 10
[8] = target: Melanom-assoziiertes Chondroitinsulfat Proteoglykan (MCSP) (human) (UniProt Q6UVK1); assay: flow cytometry with MCSP-GFP on primary melanoma cells of patient 9
[9] = target: Melanom-assoziiertes Chondroitinsulfat Proteoglykan (MCSP) (human) (UniProt Q6UVK1); assay: flow cytometry with MCSP-GFP on primary melanoma cells of patient 8
[10] = target: Melanom-assoziiertes Chondroitinsulfat Proteoglykan (MCSP) (human) (UniProt Q6UVK1); assay: flow cytometry with MCSP-GFP on primary melanoma cells of patient 5

ΔMFI (Mittlere Fluoreszenzaktivität über dem Hintergrund) [1]: 182
ΔMFI (Mittlere Fluoreszenzaktivität über dem Hintergrund) [2]: 329
ΔMFI (Mittlere Fluoreszenzaktivität über dem Hintergrund) [3]: 320
ΔMFI (Mittlere Fluoreszenzaktivität über dem Hintergrund) [4]: 84
ΔMFI (Mittlere Fluoreszenzaktivität über dem Hintergrund) [5]: 504
ΔMFI (Mittlere Fluoreszenzaktivität über dem Hintergrund) [6]: 425
ΔMFI (Mittlere Fluoreszenzaktivität über dem Hintergrund) [7]: 507
ΔMFI (Mittlere Fluoreszenzaktivität über dem Hintergrund) [8]: 11
ΔMFI (Mittlere Fluoreszenzaktivität über dem Hintergrund) [9]: 627
ΔMFI (Mittlere Fluoreszenzaktivität über dem Hintergrund) [10]: 475
Substance: Fusionsprotein MCSP-GFP (from UniProt P42212 1-238)
